Measurements reported in patent publication US10167292B2, “Benzodiazepines as bromodomain inhibitors” (Catalyst Therapeutics Pty Ltd, priority 2015, dated 2019).

Key:
MV4; 11 = test: Cell proliferation assay (CellTiter-Glo), MV4;11; assay type: cell-based; settings: Homo sapiens, MV4-11, 72 h, read-out: MV4; 11 IC50 (μM)
Experimental: (§1) The cells were prepared in the required fashion (suspension or adherent). The cells were initially washed once in the culture medium that they would be finally treated in. Following this 10 ml of the test medium was added and the cells. The mixture was pipetted gently several times.
(§2) The cells were counted and then the volume was spun down to the volume necessary for the total number of cells needed. The cells were then resuspended in the appropriate test medium to the desired concentration. In general, the final concentration of non-adherent cells was 2×10^5 cells/ml i.e. 10,000 cells per 50 μ1. Once the desired concentration had been reached, 50 µl of the cells were added to the appropriate wells and the cells were incubated for 72 h at 37° C.
(§3) CellTiter-Glo Luminescent Assay (Kit G7571—See Promega's Instruction Manual for Additional Details):
(§4) Both reagents were pre-warmed to RT. The buffer was thawed in a 37° C. water bath until it had just completely thawed. It was then left on a bench at RT for at least 30 min.
(§5) Following this the substrate and buffer were mixed together. To ensure that the substrate was dissolved, the mixture was inverted several times. […]
(§6) Afterwards 40 μL of the reagent was added to 100 μL of the culture medium. […] The luminescence could then be read using a luminescence plate reader.

HL-60 = test: Cell proliferation assay (CellTiter-Glo), HL-60; assay type: cell-based; settings: Homo sapiens, HL-60, 72 h, read-out: HL-60 IC50 (μM)
Experimental: as §1, §2, §3, §4, §5, §6

For `Cc1nnn2c1-c1ccc(-c3noc(=O)[nH]3)cc1N(c1ccc(Cl)cc1)CC2` [Example 49, 3-(7-(4-chlorophenyl)-1-methyl-6,7-dihydro-5H-benzo[f][1,2,3]triazolo[1,5-d][1,4]diazepin-9-yl)-1,2,4-oxadiazol-5(4H)-one], the IC50 (MV4; 11) was < 1 µM and the IC50 (HL-60) was > 5 µM.
